Data from US20260265240A1, “PREPARATION METHOD FOR SALT FORM AND CRYSTAL FORM OF 2,6-PIPERIDINEDIONE COMPOUND AND USE THEREOF” (ZHANGZHOU PIEN TZE HUANG PHARMACEUTICAL CO., LTD., priority 2023, published 2026).
Counter-ions that a name gives are not always drawn.

Assay: Pharmacokinetic evaluation in beagle dogs
Format: in vivo
Conditions: male, dog, plasma, po, intragastric administration 5 mg/kg, fed, read-out: Bioavailability F
Description: Male beagle dogs were selected as the experimental animals in this study. The LC/MS/MS method was employed to quantitatively determine the plasma drug concentrations at different time points after intravenous injection or intragastric administration of the test compound, aiming to evaluate the pharmacokinetic characteristics of the compound of formula (I) of the present disclosure in beagle dogs.
Beagle dogs (male, 7 to 10 kg, Beijing Mars Biotechnology Co., Ltd.).
A clear solution of the test compound was slowly injected intravenously into beagle dogs (fed) via the peripheral vein (vehicle: […]/10% Solutol/85% H2O), or administered intragastrically to beagle dogs (fed). For intravenous administration, 0.5 mL of blood was collected from the peripheral vein at 0.083, 0.25, 0.5, 1, 2, 4, 6, 8, and 24 h after administration, placed in EDTA-2K anticoagulant tubes, and centrifuged at 3200 g for 10 minutes at 2 to 8° C. to separate the supernatant. […] Plasma drug concentrations were determined by the LC-MS/MS method, and relevant pharmacokinetic parameters were calculated using Phoenix WinNonlin 6.3 pharmacokinetic software with non-compartmental model linear-log trapezoidal method.

O=C1CCC(c2noc3ccc4c(NC(=O)CN5CCN(C[C@H]6CC[C@H](n7cc(NC(=O)c8coc(-c9ccnc(NCC%10CC%10)c9)n8)c(C(F)F)n7)CC6)CC5)cccc4c23)C(=O)N1 (stereo partly shown) [Hydrochloride of Compound of Formula (I)]
bioavailability: 72.6%
